Earlier results, collected in patent US6060458A, “Oligodeoxyribonucleotides comprising O^6 -benzylguanine and their use” (The United States of America as represented by the …, priority 1998, dated 2000).
Changes are numbered by the printed parent chain.

Tests used:
[1] = target: T1, mutant human alkyltransferase G156A (Homo sapiens, UniProt P16455, G156A); details: read-out: ED50 for inactivation of AGT, data previously published; cited from earlier work
T1 construct: made in house; E. coli by own knowledge of pIN vectors
T1 sequence (P16455 1-207 G156A): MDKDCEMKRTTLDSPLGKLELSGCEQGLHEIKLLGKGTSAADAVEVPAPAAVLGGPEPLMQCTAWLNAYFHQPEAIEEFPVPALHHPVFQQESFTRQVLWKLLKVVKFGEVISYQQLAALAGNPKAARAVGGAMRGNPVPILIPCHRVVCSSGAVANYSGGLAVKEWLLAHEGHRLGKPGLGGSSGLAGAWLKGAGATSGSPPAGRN

[2] = target: T2, mutant human alkyltransferase P140A (Homo sapiens, UniProt P16455, P140A); details: read-out: ED50 for inactivation of AGT, data previously published; cited from earlier work
T2 construct: made in house; E. coli by own knowledge of pIN vectors
T2 sequence (P16455 1-207 P140A): T1 sequence (P16455 1-207 G156A) with P140A, A156G

Nc1nc(OCc2ccccc2)c2[nH]cnc2n1 [O^6 -benzylguanine]
IC50 [1]: 60 µM | IC50 [2]: 5 µM
